The test system of experiment [1] is myocytes co-cultured with intrinsic cardiac adrenergic cells. In words: Effect of b1-adrenergic blockade on myocyte [Ca2+]i transients and beating rate in co-culture. The class given is cell-based, rat.
The test system of experiment [2] is intrinsic cardiac adrenergic cells. Particulars: for reduction of amplitude of [Ca2+]i transients of intrinsic cardiac adrenergic cells: n=8.
For experiment [3] the test system is unchanged. It counts as cell-based, rat.

This note sets out measurements from patent US20110112032A1, “Regulation of Brain Natriuretic Peptide and Catecholamines for the Treatment of Cardiovascular Diseases” (priority 2005, published 2011).

Like-named read-outs stand apart in the source and are kept apart here.

As for `CC(C)NCC(O)COc1ccc(CC(N)=O)cc1` (stereo not drawn) [Atenolol], the “decrease in beating rate of myocytes” value in experiment [1] (1 nM) is 16±7; in experiment [1] (10 nM), 26±8; in experiment [1] (100 nM), 57±11; in experiment [1] (1000 nM) it was 62±13. The “reduction of amplitude of myocyte [Ca2+]i transients” value in experiment [1] (1 nM) was determined as 19±9; in experiment [1] (10 nM), 37±4; in experiment [1] (100 nM), 49±8; in experiment [1] (1000 nM), 75±10. Also, the “reduction in the amplitude of [Ca2+]i transients of a myocyte” value in experiment [1] (100 nM, single myocyte) is 40%. Besides, the “myocyte beating rate after administration” value in experiment [1] (100 nM, single myocyte, from 66 beats/minute) worked out at 7 beats/minute. Besides, the “effect on myocyte beating” value in experiment [1] (1 μM) was “stops the myocyte beating”. Also, the “frequency of [Ca2+]i transients of intrinsic cardiac adrenergic cells” value in experiment [2] (1000 nM) is listed as “did not significantly increase”. Further, in experiment [2] (concentration not given), the “effect on [Ca2+]i transients of intrinsic cardiac adrenergic cells” value is reported as “not significantly affected”.

For `COC(=O)C1=C(C)NC(C)=C(C(=O)OC)C1c1ccccc1[N+](=O)[O-]` [Nifedipine, nifedipine], the “reduction of amplitude of [Ca2+]i transients of intrinsic cardiac adrenergic cells” value in experiment [2] (nifedipine 1 mM) stood at 54±8%; in experiment [2] (nifedipine 10 mM), 82±3%.

For `NC1=N[C@H](O)[C@H]2[C@H]3O[C@]4(O)O[C@@H]([C@@H](O)[C@@]2(N1)[C@@H]4O)[C@]3(O)CO` [tetrodotoxin], in experiment [2], the “spike frequency of [Ca2+]i transients of intrinsic cardiac adrenergic cells after administration” value stood at 0 spikes/min.

For the molecule [D-Pen^25]-enkephalin [DPDPE], in experiment [2], the “activation of intrinsic cardiac adrenergic cells in the presence of protein kinase A inhibition” value was “failed to activate”; the “effect on [Ca2+]i transients in intrinsic cardiac adrenergic cells” value is given as “increases”; the “enhanced [Ca2+]i transients in the presence of δ-opioid receptor antagonist NPI” value is “failed to generate enhanced [Ca^2+]i transients”; the “excitatory action of DPDPE in the presence of Rp CAMP, a protein kinase A inhibitor” value is reported as “is blocked”. In addition, in experiment [2], the “excitatory effect of DPDPE on [Ca2+]i transients following application of nifedipine” value was “completely abolished” and the “increase in [Ca2+]i transients generated by intrinsic cardiac adrenergic cells” value was determined as 5 fold. Moreover, in experiment [3], the “enhanced epinephrine release during recovery phase after removal” value is listed as “persists” and the “increase in epinephrine release from intrinsic cardiac adrenergic cells” value is on record as 2.4 fold.
